Test system: Escherichia coli
Assay: Antimicrobial activity against Escherichia coli by broth microdilution method
Format: functional

Sequence: GENTAMICIN
- MIC: 0.5 µg/mL

Reference: ChEMBL document CHEMBL1671722, “Comparative in vitro activity profiles of novel bis-indole antibacterials against gram-positive and gram-negative clinical isolates” (Antimicrob Agents Chemother, 2010)
